Data published in the CombiSolv-Exp solvation set (Vermeire and Green 2021).

Assay: solvent given as SMILES

Row | Structure (SMILES) | solvation free energy, 298 K (in C1CCOC1) [kcal/mol] | solvation free energy, 298 K (in CCCCCC) [kcal/mol] | solvation free energy, 298 K (in CCCCCCCC) [kcal/mol] | solvation free energy, 298 K (in CCCCCCCCCCCCCCCC) [kcal/mol] | solvation free energy, 298 K (in CCCCCCCCO) [kcal/mol] | solvation free energy, 298 K (in CCCCO) [kcal/mol] | solvation free energy, 298 K (in CO) [kcal/mol] | solvation free energy, 298 K (in ClC(Cl)(Cl)Cl) [kcal/mol] | solvation free energy, 298 K (in ClCCCl) [kcal/mol] | solvation free energy, 298 K (in O) [kcal/mol] | solvation free energy, 298 K (in Brc1ccccc1) [kcal/mol] | solvation free energy, 298 K (in CC(C)=O) [kcal/mol] | solvation free energy, 298 K (in CN(C)C=O) [kcal/mol] | solvation free energy, 298 K (in COC(C)=O) [kcal/mol] | solvation free energy, 298 K (in ClC(Cl)Cl) [kcal/mol] | solvation free energy, 298 K (in Clc1ccccc1) [kcal/mol] | solvation free energy, 298 K (in Ic1ccccc1) [kcal/mol] | solvation free energy, 298 K (in N#Cc1ccccc1) [kcal/mol]
1 | CCCCOCCCC | -6.13 | -5.91 | -5.78 | -5.39 | -5.33 | -5.35 | -4.97 | -6.28 | -5.98 | -0.8 |  |  |  |  |  |  |  | 
2 | CCl |  |  |  |  | -1.9 |  |  | -2.2 |  | -0.55 | -2.17 | -2.52 | -2.37 | -2.47 | -2.48 | -2.21 | -2.1 | -2.19
